{
  "source": "paper PMC2867052",
  "about": "(Journal of contaminant hydrology, 2009)",
  "conditions": "10% by weight HPCD",
  "note": "Read-outs that look alike come from different tables or passages of the source.",
  "data": [
    {"smiles": "CCCCc1ccccc1", "note": "[butylbenzene]", "values": [
      {"measurement": "10% HPCD Enhancement Factor (E°)", "setting": "single-component organic liquid", "value": 121},
      {"measurement": "10% HPCD Enhancement Factor (E°)", "setting": "three-component organic liquid (Tol-EB-BB)", "value": 124}
    ]}
  ]
}
